Experiment [1] has as its target T1, sushi domain 1 (SD1) of GABABR1a (Homo sapiens, UniProt Q9UBS5).
T1 construct: The synthetic gene encoding for residues 26-96 of the Sushi1 protein was cloned into a pFloat-SUMO vector; His-SUMO (with 3C protease site) (N, cleaved yes); made in house; host or cells: E. coli BL21(DE3)
Put plainly: Isothermal titration calorimetry (ITC) direct binding assay. An excerpt: In contrast to the FP assay, the isothermal titration calorimetry (ITC) assay is a direct binding assay.
For biophysical and structural biology purposes the Sushi1 protein was expressed in a bacterial expression system. The synthetic gene encoding for residues 26-96 of the Sushi1 protein was cloned into a pFloat-SUMO vector, generating a His-tagged SUMO-Sushi1 fusion protein. The construct also contained a 3C protease cleavage site to remove the His-SUMO-tag. The pFloat-SUMO-Sushi1 plasmid was transformed in BL21(DE3) cells and plated on kanamycin ([…]) containing LB agar plates. A small LB culture, supplemented with […] kanamycin, was inoculated with a single colony of BL21(DE3)(pFloat-SUMO-Sushi1) and grown overnight at 37° C. 1 liter LB cultures were subsequently inoculated with 20 ml of this preculture and grown at 37° C. until OD600 reached 0.8. At this point protein expression was induced using 0.5 mM isopropyl β-D-1-thiogalactopyranoside (IPTG). Cells were incubated further overnight at 20° C. and subsequently harvested by centrifugation (Beckman rotor 8.1000, 5000 rpm, 15 min, 4C). The pellet was resuspended in 20 mM Tris pH 7.5, 500 mM NaCl, 10 mM imidazole, 5 mM β-mercaptoethanol, 0.1 mg/mL 4-(2-aminoethyl) benzenesulfonyl fluoride hydrochloride (AEBSF), 1 μg/mL leupeptine, 50 μg/mL DNasel and 20 mM MgCl2. […]

Sequences of proteins named here, by UniProt entry; tags and fusion partners are left off. Residues count along the entry.
UniProt Q9UBS5, 26-96: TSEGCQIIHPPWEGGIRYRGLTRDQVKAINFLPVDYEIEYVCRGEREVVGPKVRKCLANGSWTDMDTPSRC

The target in experiment [2] is T2, GABABR1a-SD1 (SD1-FITC-9mer complex) (Homo sapiens, UniProt Q9UBS5).
T2 construct: The synthetic gene encoding for residues 26-96 of the Sushi1 protein was cloned into a pFloat-SUMO vector; His-SUMO (with 3C protease site) (N, cleaved yes); made in house; host or cells: E. coli BL21(DE3)
Briefly: Fluorescence polarization (FP) competition assay with FITC-9mer. It is filed as binding. The settings on record: peptide at 50 μM; inhibition of FITC-9mer binding to SD1. The method, then:
Intrigued by the surprising results of the 5-mer, it was decided to set up a medium- to high-throughput screen to optimize the 5-mer sequence. Several assays were tested to find a reproducible, robust and cost-effective assay that is also suitable for high-throughput screening. A fluorescence polarization (FP) assay was selected. FP measurements are well-known for receptor binding assays. The assay is based on the rotational movement of fluorescently labelled molecules in solution. […] The FP assay was optimized using the FITC labelled sAPP 9-mer (FIG. 1).
To screen for GABABR1a binders using unlabelled test compounds, the assay was turned into a competition assay using FITC-9mer. […] To validate this inhibitor assay, the IC50 values were determined of the 17-mer, 9-mer, 5-mer as well as those from 3 negative controls: 10-mer, scrambled 17-mer and a scrambled 9-mer (FIG. 2).
To determine if the peptides of this application were able to disrupt the SD1-9-mer complex, each peptide (in single point or dose-response curve) tested was incubate with SD1 protein for 1 h at RT. After this initially incubation, FITC-9mer was added to the previous mix and incubated during 2 h at RT. The signal intensity was measure in an appropriate plate reader using the following settings: Number of flashes per well: 200; Excitation: F482-16; Dichroic filter: FLP 504; Emission A F530-40; Gain A: 738, Gain B: 736. The assay was conducted in a 384-well plate.

In the case of `CC[C@H](C)[C@H](NC(=O)[C@@H](N)CC(=O)O)C(=O)N[C@@H](Cc1c[nH]cn1)C(=O)N[C@@H](Cc1c[nH]c2ccccc12)C(=O)NCC(=O)O` [VIB_P36, DIHWG], binding in experiment [1] was characterised by a dissociation constant (Kd) of 18.5 µM. Also, at 50 µM the inhibition in experiment [2] was 25.5%.
